Laboratory results reported in patent US12528786B2, “Plasma kallikrein inhibitors” (Merck Sharp & Dohme LLC, priority 2020, dated 2026).

The chains behind the UniProt entries cited, without tags or fusion partners. Residues count along the entry.
UniProt P03952, 391-638 limits assumed: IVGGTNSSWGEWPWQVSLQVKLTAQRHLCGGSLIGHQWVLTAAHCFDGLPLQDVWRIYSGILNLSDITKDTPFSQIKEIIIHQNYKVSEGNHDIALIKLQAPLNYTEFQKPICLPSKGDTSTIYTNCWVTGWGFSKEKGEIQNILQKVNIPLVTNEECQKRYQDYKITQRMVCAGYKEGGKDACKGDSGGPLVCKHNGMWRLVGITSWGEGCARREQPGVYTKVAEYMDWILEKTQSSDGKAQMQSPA
UniProt P03952, 20-390 partner limits assumed: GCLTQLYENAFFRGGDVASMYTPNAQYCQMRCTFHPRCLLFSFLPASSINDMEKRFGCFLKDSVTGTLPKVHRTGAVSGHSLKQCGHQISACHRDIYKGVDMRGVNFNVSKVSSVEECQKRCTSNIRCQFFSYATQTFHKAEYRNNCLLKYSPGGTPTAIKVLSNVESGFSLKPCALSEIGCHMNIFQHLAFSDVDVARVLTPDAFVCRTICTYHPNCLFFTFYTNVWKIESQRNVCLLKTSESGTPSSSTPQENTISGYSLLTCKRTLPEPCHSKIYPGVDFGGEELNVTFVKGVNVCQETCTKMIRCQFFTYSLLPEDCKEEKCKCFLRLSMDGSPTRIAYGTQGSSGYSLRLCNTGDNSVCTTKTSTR

Molecular target: Human plasma kallikrein (Homo sapiens, UniProt P03952)
Test: Kallikrein Assay (fluorogenic substrate hydrolysis, AFC release)
Details: read-out: Plasma Kallikrein IC50; purified Human plasma kallikrein 0.5 nM; substrate Acetyl-K—P—R-AFC 100 mM; 50 mM HEPES pH 7.4
Procedure: The effectiveness of a compound of the present invention as an inhibitor of Kallikrein can be determined using a relevant purified serine protease, and an appropriate synthetic substrate. The rate of hydrolysis of the chromogenic or fluorogenic substrate by the relevant serine protease was measured both in the absence and presence of compounds of the present invention. Assays were conducted at room temperature or at 37° C. […] A decrease in the rate of fluorescence change in the presence of inhibitor is indicative of enzyme inhibition. Such methods are known to one skilled in the art. The results of this assay are expressed as the half-maximal inhibitory concentrations (IC50), or the inhibitory constant, Ki. […]
Activity assays were performed by diluting a stock solution of substrate at least tenfold to a final concentration ≤0.2 Km into a solution containing enzyme or enzyme equilibrated with inhibitor. Times required to achieve equilibration between enzyme and inhibitor were determined in control experiments. The reactions were performed under linear progress curve conditions and fluorescence increase measured at 405 Ex/510 Em nm. […] IC50 was determined by inflection point from a four parameter logistic curve fit. Ki was calculated using the Cheng Prusoff equation, Ki=IC50/(1+([S]/Km)).

| Compound | IC50 [nM] |
| --- | --- |
| Cc1cc(N2C[C@H]3C[C@H]3C2=O)ncc1C(C)n1cc(C(=O)N[C@H]2C[C@@H](c3cc(Cl)ccc3C#N)C2)cn1 (single isomer, unassigned) [Example 7] | 0.3 |
| Cc1cc(N2C[C@H]3C[C@H]3C2=O)ncc1C(C)n1cc(C(=O)N[C@H]2C[C@@H](c3cc(Cl)ccc3C#N)C2)cn1 (single isomer, unassigned) [Example 8] | 2.8 |
